Assay results taken from patent US20250382308A1, “COMPOUNDS ACTIVE TOWARDS BROMODOMAINS” (NUEVOLUTION A/S, priority 2022, published 2025).
pKd: −log10 of the molar value.

How the values were obtained:
[1] = molecular target: second bromodomain of BRD4 (Homo sapiens (Human), UniProt O60885); test: Bromoscan binding assay BRD4 (2); conditions: geometric mean where multiple measurements have been made
Description: (§1) Compounds were assayed for binding affinity using bromoscan assays and a phosphodiesterase three assay.
(§2) Bromoscan assays were run by DiscoveRx Corporation. The relevant assay names are BRD4 (1) for the first bromodomain of BRD4 and BRD4 (2) for the second bromodomain of BRD4. Further Bromoscan assays covering other bromodomains may be employed to establish the selectivity profile of a compound of interest. To run the Bromoscan assay, a T7 phage strain displaying the relevant bromodomain was grown in parallel in 24-well blocks in an E. coli host derived from the BL21 strain. E. coli were grown to log-phase and infected with T7 phage from a frozen stock (multiplicity of infection=0.4) and incubated with shaking at 32° C. until lysis (90-150 minutes). The lysates were centrifuged (5,000×g) and filtered (0.2 μm) to remove cell debris. Streptavidin-coated magnetic beads were treated with biotinylated small molecule or acetylated peptide ligands for 30 minutes at room temperature to generate affinity resins for bromodomain assays. […] The bromodomain concentration in the eluates was measured by qPCR (quantitative real-time polymerase chain reaction). Binding constants (Kds) were calculated with a standard dose-response curve using the Hill equation: Response=Blackground+((Signal-Background)/(1+Kd^Hill Slope/Dose^Hill Slope)). […]

[2] = molecular target: first bromodomain of BRD4 (Homo sapiens (Human), UniProt O60885); test: Bromoscan binding assay BRD4 (1); conditions: geometric mean where multiple measurements have been made
Description: as §1
as §2, with “[…] The liganded” for “Streptavidin-coated magnetic”, “blocked” for “treated”, “excess biotin and washed with blocking buffer (SeaBlock (Pierce), 1% BSA (bovine serum albumin), 0.05% Tween 20, 1 mM DTT (dithiothreitol))” for “biotinylated small molecule or acetylated peptide ligands for 30 minutes at room temperature”, “remove unbound ligand and to reduce non-specific phage binding.” for “generate affinity resins for bromodomain assays.”

Structure (SMILES) | pKd [1] | pKd [2]
COc1cc(NC(=O)c2cc3c(nc2N2C[C@@H]4C[C@H]2CO4)COC3)cc2c(C)cc(=O)[nH]c12 [Example 23, N-(8-methoxy-4-methyl-2-oxo-1H-quinolin-6-yl)-2-[(1S,4S)-2-oxa-5-azabicyclo[2.2.1]heptan-5-yl]-5,7-dihydrofuro[3,4-b]pyridine-3-carboxamide] | 5.49 | 6.72
COc1cc(NC(=O)c2cc3c(nc2N2C[C@H]4C[C@@H]2CO4)COC3)cc2c(C)cc(=O)[nH]c12 [Example 24, N-(8-methoxy-4-methyl-2-oxo-1H-quinolin-6-yl)-2-[(1R,4R)-2-oxa-5-azabicyclo[2.2.1]heptan-5-yl]-5,7-dihydrofuro[3,4-b]pyridine-3-carboxamide] | 6.15 | 7.55
